In this assay the target is Sucrase-isomaltase, intestinal (Rattus norvegicus, UniProt P23739). Briefly: Inhibition of rat intestinal alpha-glucosidase sucrase using sucrose as substrate preincubated for 10 mins prior substrate addition measured after 40 mins by spectrophotometry.

Chains of the proteins cited; added tags and fusions are not shown. Residues count along the entry.
UniProt P23739, 1014-1841 limits assumed: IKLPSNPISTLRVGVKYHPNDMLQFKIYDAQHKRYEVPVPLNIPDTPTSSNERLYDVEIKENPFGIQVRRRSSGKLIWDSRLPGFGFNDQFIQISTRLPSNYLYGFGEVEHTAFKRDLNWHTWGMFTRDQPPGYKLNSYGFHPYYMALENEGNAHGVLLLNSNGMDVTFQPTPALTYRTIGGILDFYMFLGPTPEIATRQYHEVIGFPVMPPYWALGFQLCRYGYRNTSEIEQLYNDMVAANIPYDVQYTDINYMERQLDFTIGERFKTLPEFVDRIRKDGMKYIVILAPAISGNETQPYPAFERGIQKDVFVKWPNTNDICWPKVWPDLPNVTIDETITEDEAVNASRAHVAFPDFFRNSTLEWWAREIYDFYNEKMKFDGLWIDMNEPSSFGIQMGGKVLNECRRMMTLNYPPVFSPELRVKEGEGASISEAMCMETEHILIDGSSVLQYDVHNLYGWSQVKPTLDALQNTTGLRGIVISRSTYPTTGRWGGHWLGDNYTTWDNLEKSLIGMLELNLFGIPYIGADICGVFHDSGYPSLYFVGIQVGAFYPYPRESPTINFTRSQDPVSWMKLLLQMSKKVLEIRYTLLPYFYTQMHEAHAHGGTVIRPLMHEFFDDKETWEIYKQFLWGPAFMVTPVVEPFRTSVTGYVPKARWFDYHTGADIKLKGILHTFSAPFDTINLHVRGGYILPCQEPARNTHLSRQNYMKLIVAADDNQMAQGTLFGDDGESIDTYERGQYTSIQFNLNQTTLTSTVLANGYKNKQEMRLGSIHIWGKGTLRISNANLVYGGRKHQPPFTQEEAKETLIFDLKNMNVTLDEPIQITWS
UniProt P23739, 1-1013 limits assumed: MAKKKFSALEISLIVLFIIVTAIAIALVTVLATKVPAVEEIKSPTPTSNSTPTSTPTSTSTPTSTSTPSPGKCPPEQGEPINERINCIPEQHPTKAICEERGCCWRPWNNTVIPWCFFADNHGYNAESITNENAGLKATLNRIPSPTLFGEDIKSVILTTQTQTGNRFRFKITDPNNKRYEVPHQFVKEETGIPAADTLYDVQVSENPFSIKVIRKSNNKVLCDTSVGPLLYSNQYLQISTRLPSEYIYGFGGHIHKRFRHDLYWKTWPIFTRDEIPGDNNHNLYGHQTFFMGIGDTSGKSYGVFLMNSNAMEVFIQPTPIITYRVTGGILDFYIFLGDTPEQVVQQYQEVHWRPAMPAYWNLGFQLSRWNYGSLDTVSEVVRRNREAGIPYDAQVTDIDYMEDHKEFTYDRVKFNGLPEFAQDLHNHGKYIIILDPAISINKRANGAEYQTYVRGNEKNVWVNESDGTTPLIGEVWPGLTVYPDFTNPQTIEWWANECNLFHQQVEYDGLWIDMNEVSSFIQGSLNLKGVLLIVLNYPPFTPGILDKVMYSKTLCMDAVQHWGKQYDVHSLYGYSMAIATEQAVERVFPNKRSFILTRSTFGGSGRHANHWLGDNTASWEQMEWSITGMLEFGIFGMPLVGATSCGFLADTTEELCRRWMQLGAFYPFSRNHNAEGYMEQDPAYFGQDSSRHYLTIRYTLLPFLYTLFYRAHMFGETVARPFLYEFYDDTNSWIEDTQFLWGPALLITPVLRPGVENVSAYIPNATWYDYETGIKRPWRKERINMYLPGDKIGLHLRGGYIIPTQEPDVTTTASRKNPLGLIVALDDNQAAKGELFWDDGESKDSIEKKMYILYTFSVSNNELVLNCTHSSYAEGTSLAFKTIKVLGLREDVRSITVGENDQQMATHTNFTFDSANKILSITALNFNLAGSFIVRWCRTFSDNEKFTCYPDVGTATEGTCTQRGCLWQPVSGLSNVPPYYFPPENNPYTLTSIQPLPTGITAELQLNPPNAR

The record followed here is ChEMBL document CHEMBL1949549, “Concise synthesis of (+)-conduritol F and inositol analogues from naturally available (+)-proto-quercitol and their glucosidase inhibitory activity” (Bioorg Med Chem Lett, 2012).

In turn, `C[C@H]1O[C@H](O[C@H]2[C@H](O)[C@@H](O)[C@@H](O[C@H]3[C@H](O)[C@@H](O)C(O)O[C@@H]3CO)O[C@@H]2CO)[C@H](O)[C@@H](O)[C@@H]1N[C@H]1C=C(CO)[C@@H](O)[C@H](O)[C@H]1O` (stereo partly specified) [ACARBOSE] returned an IC50 of 2380 nM.
